Amino acid sequences for entries named in this document (tags omitted). Residues count along the entry.
UniProt P04757, 26-499: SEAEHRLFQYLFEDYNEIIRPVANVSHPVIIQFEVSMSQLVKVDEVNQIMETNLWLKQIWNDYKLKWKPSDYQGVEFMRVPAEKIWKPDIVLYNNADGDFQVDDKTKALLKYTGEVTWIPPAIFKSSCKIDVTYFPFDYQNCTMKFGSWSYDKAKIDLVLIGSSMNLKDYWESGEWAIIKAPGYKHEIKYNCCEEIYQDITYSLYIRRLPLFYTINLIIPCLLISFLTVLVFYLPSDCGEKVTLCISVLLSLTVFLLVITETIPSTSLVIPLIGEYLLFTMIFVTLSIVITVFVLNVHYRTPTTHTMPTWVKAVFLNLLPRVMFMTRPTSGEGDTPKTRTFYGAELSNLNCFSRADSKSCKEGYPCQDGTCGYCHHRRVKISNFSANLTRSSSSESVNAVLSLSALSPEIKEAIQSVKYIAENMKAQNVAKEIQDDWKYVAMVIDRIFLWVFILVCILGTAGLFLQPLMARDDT
UniProt P12392, 21-495: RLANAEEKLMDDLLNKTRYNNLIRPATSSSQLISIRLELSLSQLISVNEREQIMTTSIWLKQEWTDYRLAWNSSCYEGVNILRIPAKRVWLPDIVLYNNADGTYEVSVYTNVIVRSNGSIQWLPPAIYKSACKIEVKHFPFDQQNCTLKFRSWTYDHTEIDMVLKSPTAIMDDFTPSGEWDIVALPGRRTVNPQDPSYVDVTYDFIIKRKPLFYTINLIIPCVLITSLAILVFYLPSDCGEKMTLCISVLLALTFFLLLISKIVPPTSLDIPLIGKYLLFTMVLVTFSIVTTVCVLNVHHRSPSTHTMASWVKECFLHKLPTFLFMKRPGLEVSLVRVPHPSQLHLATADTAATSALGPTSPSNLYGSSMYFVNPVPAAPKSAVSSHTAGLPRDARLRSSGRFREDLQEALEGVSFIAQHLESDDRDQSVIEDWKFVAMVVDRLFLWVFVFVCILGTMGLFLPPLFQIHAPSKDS

According to article PMC3866371 (Neuropharmacology, 2013):

Target: α3β4 nAChR (Rattus norvegicus, UniProt P04757+P12392)
Format: binding
Conditions: 16 h incubation

Clc1ccc(C2CC3CCC2N3)cn1 (stereo not shown) [[^3H]epibatidine]
Bmax of [^3H]epibatidine binding (in the presence of 0 AT-1012): 8.28 pmol/mg protein
Bmax of [^3H]epibatidine binding (in the presence of 5 nM AT-1012): 7.34 pmol/mg protein
Bmax of [^3H]epibatidine binding (in the presence of 15 nM AT-1012): 6.08 pmol/mg protein
Bmax of [^3H]epibatidine binding (in the presence of 50 nM AT-1012): 6.32 pmol/mg protein

Like-named read-outs stand apart in the source and are kept apart here.
